Consider two compounds from patent publication US20230312576A1, “4-(7H-PYRROLO[2,3-D]PYRIMIDIN-4-YL)-3,6-DIHYDROPYRIDINE-1-(2H)-CARBOXAMIDE DERIVATIVES AS LIMK AND/OR ROCK KINASES INHIBITORS FOR USE IN THE TREATMENT OF CANCER” (CENTRE NATIONAL DE LA RECHERCHE SCIENTIFIQUE, priority 2020, published 2023).

Protein sequences, listed by entry. Tags and fused reporters are not part of them. Lines headed by an entry give the natural chain unless they say otherwise; changes in a name come on top.
UniProt P53671: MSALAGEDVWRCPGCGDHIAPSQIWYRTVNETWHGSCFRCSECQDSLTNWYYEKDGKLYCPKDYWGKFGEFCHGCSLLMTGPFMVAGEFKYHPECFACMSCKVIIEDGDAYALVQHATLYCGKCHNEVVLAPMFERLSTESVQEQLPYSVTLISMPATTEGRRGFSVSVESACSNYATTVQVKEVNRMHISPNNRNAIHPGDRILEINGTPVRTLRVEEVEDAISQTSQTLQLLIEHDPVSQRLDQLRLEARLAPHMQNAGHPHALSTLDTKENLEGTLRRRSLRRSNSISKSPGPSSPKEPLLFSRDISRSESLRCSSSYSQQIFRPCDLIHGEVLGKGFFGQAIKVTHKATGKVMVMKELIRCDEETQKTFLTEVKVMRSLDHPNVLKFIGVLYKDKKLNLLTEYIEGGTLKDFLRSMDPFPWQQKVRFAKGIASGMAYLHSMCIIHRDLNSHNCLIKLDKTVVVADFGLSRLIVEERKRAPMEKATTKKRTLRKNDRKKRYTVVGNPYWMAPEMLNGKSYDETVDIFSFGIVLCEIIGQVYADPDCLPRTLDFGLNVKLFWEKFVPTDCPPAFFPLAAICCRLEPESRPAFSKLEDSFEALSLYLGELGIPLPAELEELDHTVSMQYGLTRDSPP
UniProt P53667: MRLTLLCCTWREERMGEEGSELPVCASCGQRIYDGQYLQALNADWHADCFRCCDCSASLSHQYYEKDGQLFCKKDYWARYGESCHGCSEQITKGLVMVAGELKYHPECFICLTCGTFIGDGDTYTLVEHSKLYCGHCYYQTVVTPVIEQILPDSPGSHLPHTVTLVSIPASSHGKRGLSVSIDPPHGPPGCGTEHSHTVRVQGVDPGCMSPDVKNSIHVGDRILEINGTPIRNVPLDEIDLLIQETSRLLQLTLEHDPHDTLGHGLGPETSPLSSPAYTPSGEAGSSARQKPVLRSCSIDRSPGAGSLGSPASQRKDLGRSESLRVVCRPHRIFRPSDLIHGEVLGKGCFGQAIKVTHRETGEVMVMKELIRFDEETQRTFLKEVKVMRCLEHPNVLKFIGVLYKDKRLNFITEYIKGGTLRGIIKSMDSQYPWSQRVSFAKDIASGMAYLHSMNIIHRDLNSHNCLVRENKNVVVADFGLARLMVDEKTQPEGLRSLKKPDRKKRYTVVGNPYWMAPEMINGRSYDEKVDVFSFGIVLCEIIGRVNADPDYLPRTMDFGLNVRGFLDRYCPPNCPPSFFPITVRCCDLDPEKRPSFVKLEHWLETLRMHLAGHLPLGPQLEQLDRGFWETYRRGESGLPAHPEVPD

The structures appear in SMILES notation. Where two headings read alike, the source gives them in different places.

In one assay the target is LIMK2 (Homo sapiens (Human), UniProt P53671). The experiment in a line: Lanthascreen Eu binding assay (TR-FRET), inhibition of LIMK2. (In general: In TR-FRET formats the signal depends on donor and acceptor labels being close together.)
In another assay the target is LIMK1 (Homo sapiens (Human), UniProt P53667). Description: Lanthascreen Eu binding assay (TR-FRET), inhibition of LIMK1.

The compound `Cc1c[nH]c2ncnc(C3=CC(C)N(C(=O)Nc4cccc(Cl)c4)C(C)C3)c12` (stereo not drawn) yielded a Ki on LIMK2 (Lanthascreen Eu binding assay) of 72.5 nM. That is a double-digit nanomolar value. With `Cc1c[nH]c2ncnc(C3=CC(C)N(C(=O)Nc4cccc(Br)c4)C(C)C3)c12` (stereo not drawn), the inhibition constant Ki on LIMK1 is 24 nM; on LIMK2, 62.7 nM.

Broadly, the Ki is a measure of affinity in units of concentration, obtained from inhibition or displacement. Read a low Ki as a stronger hold on the target.
